{"source": "patent US20220356398A1", "about": "“Composition and Method for Improving the Water Transport Characteristics of Hydrophobic Soils” (Ethox Chemicals, LLC, priority 2021, published 2022)", "test_system": "turf, or other plant materials", "settings": "incorporated at relatively low levels in the formulation with a polymer of Formula I", "data": [{"substance": "monophosphate of POE (6) decyl alcohol", "values": [{"measurement": "phytotoxicity", "value": "not causing the formulation to be phytotoxic"}]}]}
